Key:
[1] = target: T1, Bile acid receptor (Homo sapiens) (UniProt Q96RI1); assay: Agonist activity at recombinant His-tagged human FXR ligand binding domain assessed as SRC-1 coactivator recruitment after 4 hrs by luminescence analysis relative to GW4064
T1 sequence (whole entry): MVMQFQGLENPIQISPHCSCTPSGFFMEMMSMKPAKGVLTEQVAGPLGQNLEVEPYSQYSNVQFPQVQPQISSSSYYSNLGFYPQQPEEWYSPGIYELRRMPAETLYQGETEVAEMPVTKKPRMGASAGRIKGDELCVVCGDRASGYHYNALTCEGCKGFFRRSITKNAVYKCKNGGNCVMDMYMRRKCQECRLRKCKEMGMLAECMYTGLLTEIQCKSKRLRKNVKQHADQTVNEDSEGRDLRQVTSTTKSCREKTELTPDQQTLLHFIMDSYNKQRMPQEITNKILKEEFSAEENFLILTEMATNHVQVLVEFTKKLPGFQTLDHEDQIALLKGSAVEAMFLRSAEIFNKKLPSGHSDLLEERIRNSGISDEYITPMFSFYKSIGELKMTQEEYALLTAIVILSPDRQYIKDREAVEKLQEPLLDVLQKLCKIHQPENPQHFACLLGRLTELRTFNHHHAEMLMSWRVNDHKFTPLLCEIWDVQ

[2] = target: T1, Bile acid receptor (Homo sapiens); assay: Agonist activity at human FXR transfected in HEK293 cells assessed as transcriptional activity by luciferase reporter gene assay relative to GW4064; assay type: cell-based

Efficacy [1]: 93%
Efficacy [2]: 41%
SMILES: Cn1cc(C(=O)O)c2ccc(N3CCC(OCc4c(-c5c(Cl)cccc5Cl)noc4C4CC4)CC3)cc21 [TERN-101]

— ChEMBL document CHEMBL3745677, “Discovery of 6-(4-{[5-Cyclopropyl-3-(2,6-dichlorophenyl)isoxazol-4-yl]methoxy}piperidin-1-yl)-1-methyl-1H-indole-3-carboxylic Acid: A Novel FXR Agonist for the Treatment of Dyslipidemia” (J Med Chem, 2015)
